# Laboratory results from publication PMC7689490, “Designed CXCR4 mimic acts as a soluble chemokine receptor that blocks atherogenic inflammation by agonist-specific targeting” (Nature Communications, 2020).
# Chains of the proteins cited; added tags and fusions are not shown. Residues count along the entry.
# UniProt P48061, 22-89 limits assumed: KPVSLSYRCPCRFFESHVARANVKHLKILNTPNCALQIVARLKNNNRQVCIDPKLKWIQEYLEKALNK
# Tests used:
# [1] = molecular target: T1, CXCL12 (Homo sapiens, UniProt P48061); assay: Microscale thermophoresis (MST), TAMRA-msR4M-L1 / CXCL12; type: binding
# T1 construct: purchased Peprotech
# Experimental: MST measurements were recorded on a Monolith NT.115 instrument with green/red filters (NanoTemper Technologies, Munich, Germany). MST and LED power were set 80 and 95%, respectively. All measurements were performed at 37 °C. MST traces were tracked for 40 s (laser-off: 5 s, laser-on: 30 s; laser-off: 5 s). […] Data points/MST traces were analyzed at an MST-on time of 1.5 s using the MO.Affinity Analysis v2.2.4 (NanoTemper Technologies).
# App. KD values were calculated assuming a 1/1 binding model, using sigmoidal curve fittings with OriginPro 2016 (OriginLab) or GraFit 5 (Erithacus Software Ltd.) data analysis software as appropriate.
# [2] = Self-assembly by fluorescence titration (Fluos-peptide with unlabeled peptide); type: physicochemical; conditions: fluorescence emission at 522 nm
# Experimental: Fluorescence spectroscopic titrations were performed using a JASCO FP-6500 fluorescence spectrophotometer. […] The excitation wavelength was 492 nm and emission spectra were obtained between 500 and 600 nm. Apparent KD values (app. KD) were calculated assuming a 1/1 binding model using sigmoidal curve fittings with OriginPro 2016 (OriginLab, Northampton, MA, USA) or GraFit 5 (Erithacus Software Ltd., Wilmington House, UK) data analysis software as appropriate.
# [3] = molecular target: T1, CXCL12; assay: Fluorescence polarization (FP), Fluos-msR4M-L1 / CXCL12; type: binding
# Experimental: FP was measured with a JASCO FP-6500 fluorescence spectrophotometer equipped with FDP-223 and FDP-243 polarizers.
# Bandwidth for excitation and emission was set at 5 nm and time response at 0.5 s. The excitation wavelength was 492 nm and emission was recorded at 519 nm. Measurements were performed at RT and within 2–3 min upon preparation of the solutions. Polarization was calculated using the equation: P = (Iǁ − G·I⊥) / (Iǁ + G·I⊥), in which Iǁ is the intensity of emitted light polarized parallel to the excitation light, I⊥ is the intensity of emitted light polarized perpendicular to the excitation light, and the G factor was calculated based on the instrumental documentation (https://currentprotocols.onlinelibrary.wiley.com/doi/10.1002/9780470559277.ch090102. Apparent KD values (app. KD) were calculated assuming a 1/1 binding model, using sigmoidal curve fittings with OriginPro 2016 (OriginLab) or GraFit 5 (Erithacus Software Ltd.) data analysis software as appropriate.
# [4] = molecular target: T2, MIF / HA-tagged sCD74(73–232) (Homo sapiens, UniProt P14174); assay: FP binding competition, Alexa-488-MIF / sCD74 with msR4M-L1; conditions: Suppl. Fig. 9b, in the presence of msR4M-L1
# T2 construct: purchased R&D Systems
# T2 sequence (P14174 2-115): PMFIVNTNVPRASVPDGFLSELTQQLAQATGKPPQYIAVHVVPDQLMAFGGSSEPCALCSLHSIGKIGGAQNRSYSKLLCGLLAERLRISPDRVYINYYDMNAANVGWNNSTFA
# T2 sequence (P04233 73-232 isoform P04233-2 partner limits assumed): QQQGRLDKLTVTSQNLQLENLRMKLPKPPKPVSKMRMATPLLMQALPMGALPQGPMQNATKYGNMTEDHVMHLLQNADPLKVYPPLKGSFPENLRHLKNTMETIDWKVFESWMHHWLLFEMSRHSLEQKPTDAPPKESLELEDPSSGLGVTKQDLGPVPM
# [5] = molecular target: T1, CXCL12; assay: Fluorescence spectroscopic titration of Fluos-labeled ectodomain peptides with CXCL12; type: binding
# [6] = molecular target: T2, MIF / HA-tagged sCD74(73–232); assay: MST binding competition, Alexa-647-MIF / sCD74 with msR4M-L1; conditions: Suppl. Fig. 9a, in the presence of msR4M-L1
# [7] = tested on: primary mouse spleen B lymphocytes; assay: MIF-triggered Transwell chemotaxis of primary splenic B cells; type: cell-based; conditions: 16 nM MIF; estimated from IC50 plot, means of three experiments; read-out: IC50 of inhibition of MIF-mediated B-cell chemotaxis;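 further: migration tracked over 4 h at 37 °C, read out as transmigrated cells counted by flow cytometry with absolute counting beads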
# Experimental: A Transwell-based assay was used as described previously. Briefly, splenic B cells were isolated by negative depletion using a Pan B Cell Isolation Kit (Miltenyi Biotec, Bergisch Gladbach, Germany). Purity of the cells was between 95 and 99%. […] Chemotaxis was followed for 4 h at 37 °C in a humidified atmosphere of 5% CO2. Migrated cells were counted by flow cytometry using CountBright™ Absolute Counting Beads (Molecular Probes-Invitrogen).
# [8] = App. Kd Alexa-MIF + sCD74 + msR4M-L1, 1st curve, replicate 1 (1st curve)
# [9] = App. Kd Alexa-MIF + sCD74 + msR4M-L1, 2nd curve, replicate 2 (2nd curve)
# [10] = App. Kd Alexa-MIF + sCD74 + msR4M-L1, 3rd curve, replicate 3 (3rd curve)
compound,measurement,setting,value
"CC[C@H](C)[C@H](NC(=O)[C@H](Cc1ccc(O)cc1)NC(=O)[C@H](CCCNC(=N)N)NC(=O)[C@H](CC(=O)O)NC(=O)CCCCCCCCCCCNC(=O)CCCCCNC(=O)[C@H](CCCCN)NC(=O)[C@H](CS)NC(=O)[C@H](CC(C)C)NC(=O)[C@H](Cc1ccccc1)NC(=O)[C@H](CC(N)=O)NC(=O)CNC(=O)[C@H](Cc1ccccc1)NC(=O)[C@H](Cc1ccc(O)cc1)NC(=O)[C@H](Cc1c[nH]c2ccccc12)NC(=O)[C@H](CC(N)=O)NC(=O)[C@H](C)NC(=O)[C@@H](NC(=O)[C@H](C)NC(=O)[C@@H](N)CC(=O)O)C(C)C)C(=O)N[C@@H](CS)C(=O)N[C@@H](CC(=O)O)C(=O)N[C@@H](CCCNC(=N)N)C(=O)N[C@@H](Cc1ccccc1)C(=O)N[C@@H](Cc1ccc(O)cc1)C(=O)N1CCC[C@H]1C(=O)N[C@@H](CC(N)=O)C(=O)N[C@@H](CC(=O)O)C(=O)N[C@@H](CC(C)C)C(=O)N[C@@H](Cc1c[nH]c2ccccc12)C(=O)N[C@H](C(N)=O)C(C)C [msR4M-L1, CXCR4-ECL1[97–110]-6-Ahx-12-Ado-ECL2[182–196]]",Kd,"[1]; App. Kd TAMRA-msR4M-L1/CXCL12 MST, 1st curve, replicate 1",> 3130 nM
same,Kd,"[1]; App. Kd TAMRA-msR4M-L1/CXCL12 MST, 2nd curve, replicate 2",541 nM
same,Kd,"[1]; App. Kd TAMRA-msR4M-L1/CXCL12 MST, 3rd curve, replicate 3",> 3130 nM
same,Kd,"[1]; App. Kd TAMRA-msR4M-L1/CXCL12 MST, 4th curve, replicate 4",> 3130 nM
same,Kd,"[1]; App. Kd TAMRA-msR4M-L1/CXCL12 MST, 5th curve, replicate 5",> 3130 nM
same,Kd,"[1]; TAMRA-msR4M-L1/CXCL12 (app. KD), MST, TAMRA-msR4M-L1 100 nM, 37 °C, 5 independent experiments",> 3130 nM
same,Kd,"[2]; titration with unlabeled peptide, mean of 3 curves (Suppl. Fig. 6c/6d right panel), read-out: App. Kd, self-assembly, mean values of the 3 curves",142 nM
same,Kd,"[2]; replicate 1 (1st curve), read-out: App. Kd, self-assembly, 1st curve",197 nM
same,Kd,"[2]; replicate 2 (2nd curve), read-out: App. Kd, self-assembly, 2nd curve",103 nM
same,Kd,"[2]; replicate 3 (3rd curve), read-out: App. Kd, self-assembly, 3rd curve",126 nM
same,Kd,"[3]; Fluos-msR4M-L1 5 nM, CXCL12 5 nM-2.5 µM, mean of 3, read-out: Fluos-msR4M-L1/CXCL12 (app. KD), FP",> 2500 nM
same,Kd,"[3]; replicate 1, read-out: App. Kd Fluos-msR4M-L1/CXCL12 FP, 1st curve",> 2500 nM
same,Kd,"[3]; replicate 2, read-out: App. Kd Fluos-msR4M-L1/CXCL12 FP, 2nd curve",> 2500 nM
same,Kd,"[3]; replicate 3, read-out: App. Kd Fluos-msR4M-L1/CXCL12 FP, 3rd curve",> 2500 nM
same,Kd,[4]; [8],42.1 nM
same,Kd,[4]; [9],150 nM
same,Kd,[4]; [10],75.7 nM
same,Kd,[5],> 6340 nM
same,Kd,"[5]; read-out: App. Kd Fluos-msR4M-L1/CXCL12, 1st curve, fluorescence spectroscopy, replicate 1",> 6340 nM
same,Kd,"[5]; read-out: App. Kd Fluos-msR4M-L1/CXCL12, 2nd curve, fluorescence spectroscopy, replicate 2",> 6340 nM
same,Kd,"[5]; read-out: App. Kd Fluos-msR4M-L1/CXCL12, 3rd curve, fluorescence spectroscopy, replicate 3",> 6340 nM
same,Kd,"[5]; read-out: app. KD Fluos-peptide/CXCL12, fluorescence spectroscopy",> 6000 nM
same,Kd,[6]; [8],26 nM
same,Kd,[6]; [9],28 nM
same,Kd,[6]; [10],49.6 nM
same,IC50,[7],10 to 15 nM

# Where two headings read alike, the source gives them in different places.
